AlphaSeq binding of Ab-14 light chain variants to a spike HR2 peptide

From the AlphaSeq antibody data of Li et al. 2023 (doi:10.1038/s41467-023-39022-2), copy in the FLAb collection.

Target: peptide PDVDLGDISGINAS, taken from heptad repeat 2 (HR2) of SARS-CoV-2 spike.

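The variants were designed computationally from a first round of random CDR variants and then made and measured. Group labels follow the data file (En: ensemble of fine-tuned language models; GP: Gaussian process model; HC: hill climbing; Gen: genetic algorithm; Gibbs: Gibbs sampling; a sequence that several methods proposed may carry one label only). Affinity was read by AlphaSeq, a pooled yeast mating assay with surface-displayed partners. After mating in shaken culture at 30 °C for 16 h, diploids were selected and their barcode pairs sequenced. The ratio of observed to expected reads was calibrated, replicate by replicate, on BCL2-family standards whose Kd was known from biolayer interferometry. There are six technical replicates.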

Parent scFv Ab-14: VH joined to VL by a (GGGGS)3 linker. Changes lie in the light chain CDRs alone.
VH: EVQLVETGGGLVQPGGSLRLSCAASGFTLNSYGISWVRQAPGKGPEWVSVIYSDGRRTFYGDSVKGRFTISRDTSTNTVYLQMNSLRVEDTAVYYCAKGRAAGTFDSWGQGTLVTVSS
VL: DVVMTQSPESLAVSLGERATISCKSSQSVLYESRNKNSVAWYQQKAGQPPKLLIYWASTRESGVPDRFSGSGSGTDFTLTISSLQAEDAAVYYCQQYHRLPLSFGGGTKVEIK

Variants are written as CDR1, CDR2 and CDR3 of the light chain (limits as in the source). Parent: KSSQSVLYESRNKNSVA, WASTRES, QQYHRLPLS. Variants here have more than six changes. Values are apparent Kd, the geometric mean of the replicates that gave a signal; lower means stronger binding. A pair that was not seen in any replicate is written "nd"; this usually means weak binding, but a binder can also be missed. In the paper, a design with two or fewer of six values counts as a poor binder. Empty control strains, which show no peptide, gave a signal in 4% of pairings with all light chain designs; the median was 430 nM and 95% of these signals were weaker than 38 nM. No background was subtracted. The range of this assay differs from that of the first round, and the authors advise against merging the two. Of ten entries with the parent sequence, four were seen in most replicates (averages 2.2 nM to 240 nM), three in one and three in none, so single entries are noisy.

The variant IVSQVMSWGIKAKNSIA / EAQTRLN / QQYDRLPLF [En_Gen] gave 12 nM (6 of 6 replicates). The variant HLGLVTMLESSVRNSVA / NNSTREE / QQYDRLPLS [En_Gen] showed 64 nM (6 of 6 replicates). For KLLQEVTGRQQNRNSVA / HNSTRED / QQYDRLPLI [En_HC], the assay gave 65 nM (1 of 6 replicates). The variant NMKVGLNFEDIQHQAIA / SVDERES / QQYARLPLT [En_Gibbs] gave 6.4 nM (6 of 6 replicates). The variant NFSQMVLTGSTLRNSVA / HATTREE / QQYHRLPLI [En_HC] showed 36 nM (6 of 6 replicates).

For IISQSMLYESATHNSIA / QTSTREE / QQYHHLPLI [En_HC], the assay gave 12 nM (6 of 6 replicates). The variant MFSQMLGLGMKVQNSVA / QASTRFN / QQYHRLPLM [En_Gen] gave 35 nM (3 of 6 replicates). For KVSEFMKGLMMRTDSIA / DNNTRGA / QQYDRLPLS [En_Gen], the assay gave 21 nM (6 of 6 replicates). The variant HIQEVDNQVENQLGNVA / DANEYLA / QQYFQLPIS [En_Gibbs] gave 110 nM (2 of 6 replicates). The variant KVMQSYLGEMRNVNSVA / NASTRES / QQYHRLPLS [GP_Gibbs] showed 1.3 nM (6 of 6 replicates).

The variant KLSATYRFESQNKSNIA / EMTTREE / QCYHRLPLS [En_HC] showed 280 nM (5 of 6 replicates). The variant NLSDGEMYENATRSHIA / DTKMRDF / QQYNRLPLT [En_Gibbs] gave 22 nM (6 of 6 replicates). The variant KIGMTLNQLMHQKQNVA / DLVEREN / QQYHRLPLS [En_Gen] showed 1.0 nM (6 of 6 replicates). For HISSMDGHDGGIIHNVA / DTGVTSR / QQYSRLPLI [En_Gibbs], the assay gave 1.1 nM (6 of 6 replicates). The variant IVSQLMLWGYHAKNSIA / EAQTRVN / QQYDRLPLI [En_Gen] showed nd (0 of 6 replicates).

With KVSQAVPYESRNLNNVA / DGSTRES / QQYHRLPLS [GP_Gibbs] the result was 460 pM (6 of 6 replicates). For NLSYHQFEPTGMVNSVA / QTSLRAH / QQYAHLPLC [En_Gibbs], the assay gave 18 nM (6 of 6 replicates). With MLGDTVMQGMYSRNSVA / QEETRAE / QQYHHLPLS [En_HC] the result was 4.1 nM (2 of 6 replicates). The variant NVSIKEPGNWRMMDSVA / HSSLRAE / QQYWRLPLM [En_Gibbs] gave 1.8 nM (6 of 6 replicates). For TISQITSLFSQTINNVA / EVSTREN / QQYDRLPLS [En_Gen], the assay gave 9.0 nM (6 of 6 replicates).

The variant KIGMTLNTLSHKQNNVA / DLVYREN / QQYFRLPLS [En_Gen] showed 2.2 nM (6 of 6 replicates). The variant ILSMSELYGDRMKNSVA / NASQRES / QQYHRLPLS [GP_Gibbs] gave 1.3 nM (6 of 6 replicates). With KLGEATRFESSNKASIA / NNSTREE / QQYHRLPLS [En_HC] the result was 7.2 nM (6 of 6 replicates). With KQQQGMDYESRNKNSVA / DASLRES / QQYHRLPLS [GP_Gibbs] the result was 3.1 nM (6 of 6 replicates). The variant MISQLMNMGQFAINSVA / QASIRNE / QQYDRLPLV [En_Gen] gave 69 nM (6 of 6 replicates).

With MIYGAQRELGLKANSIA / DNVTRYN / QQYDRLPLS [En_Gen] the result was 490 nM (4 of 6 replicates). The variant KLLQSVNYGMRALNSVA / QMETREE / QQYDRLPLS [En_HC] showed 2.9 nM (6 of 6 replicates). For KMKQSVDGLDRNQNSVA / QASTREM / QQYHRLPLS [GP_Gibbs], the assay gave 1.0 nM (6 of 6 replicates). The variant KLVNSELYESRQKNSVA / NASQREM / QQYHRLPLS [GP_Gibbs] showed 1.5 nM (6 of 6 replicates). With TLYGLTNSMSKNKDSVA / EMSTREA / QQYDRLPLM [En_Gen] the result was 7.4 nM (6 of 6 replicates).

With KVQQSVLYGDRNKNSVA / HGSTRSS / QDYHRLPLS [GP_Gibbs] the result was 5.7 nM (6 of 6 replicates). The variant MVSQLMLWGHLAKNSIA / EAEHRYN / QQYDRLPLF [En_Gen] showed 58 nM (6 of 6 replicates). The variant KIDGQTSYDAGRERAIA / DVTIRFW / QQYARLPLL [En_Gibbs] showed 7.5 nM (4 of 6 replicates). For HISQMWMLESRNKNNVA / EESTRND / QSYFRLPLS [En_HC], the assay gave 2.2 nM (6 of 6 replicates).

The last 4 entries again:

CDR-L1,CDR-L2,CDR-L3,group,apparent Kd,detected
KVQQSVLYGDRNKNSVA,HGSTRSS,QDYHRLPLS,GP_Gibbs,5.7 nM,6/6
MVSQLMLWGHLAKNSIA,EAEHRYN,QQYDRLPLF,En_Gen,58 nM,6/6
KIDGQTSYDAGRERAIA,DVTIRFW,QQYARLPLL,En_Gibbs,7.5 nM,4/6
HISQMWMLESRNKNNVA,EESTRND,QSYFRLPLS,En_HC,2.2 nM,6/6